Data reported in patent publication US20130011347A1, “Personal Care Compositions With Improved Solubility of a Solid Cosmetic Active” (priority 2011, published 2013).

Assays:
[1] = Solvency of solvents for (S)-Equol (visual solubility after storage)
Description: (§1) In the testing provided below, “soluble” (or “solubilize”), in relation to the solubility of a solid solute being tested, means that no visible crystals may be seen after a prescribed storage period at a storage condition. The storage period can vary. Suitable storage periods include about 24 hours, about 1 week, and about 30 days. Suitable storage conditions include ambient conditions or cold storage at 5° C. (approximately 1 atm). In certain embodiments, solubility may be determined after a 24 hour storage period at ambient conditions. In other embodiments, solubility may be determined after 20 days in cold storage. Other testing parameters may include storage for prolonged time periods (e.g., 30 day, 50 days, 60 days, 90 days) and at variable temperatures (e.g., 5° C., 50° C.).
(§2) The solvency of an isosorbide diester within the scope of the present invention was tested against two conventional, industry standard solvents. […] A test solution was of 6% Equol is prepared with heating to 70° C. Upon reaching 70° C., the examples may be mixed for about 10 minutes. Place mixtures in a covered vial and cool to the storage temperature. Solubility is evaluated for samples stored 24 hours at ambient conditions. Solubility is also evaluated for samples stored for 7 day at 5° C. followed by equilibration to ambient conditions.

[2] = Solvency of solvents for hexylresorcinol (visual solubility after storage)
Description: as §1
as §2, with “solution” for “solution was”, “33.5% hexylresorcinol” for “6% Equol”

[3] = Solvency of solvents for tetrahydrocurcuminoids (THC) (visual solubility after storage); settings: solute tetrahydrocurcuminoids (THC), 3% test solution, approximately 1:32 solute to solvent ratio, soluble = no visible crystals

For C12-15 alkyl benzoate, the “Solubility, 24 hour rest at Ambient Conditions” value (“Solubility, 24 hour rest” for short) [1] was “Insoluble”, the “Solubility, 7 day storage at 5° C.” value [1] was “Insoluble” and the “Solubility, 24 hour rest” value [2] was “Soluble”. For the same substance, the “Solubility, 7 day storage at 5° C.” value [2] was “Soluble”.
With isosorbide dicaprylate the “Solubility, 24 hour rest” value ([1]; solute (S)-Equol, 6% test solution, approximately 1:16 solute to solvent ratio, prepared at 70° C., soluble = no visible crystals) was “Soluble”, the “Solubility, 7 day storage at 5° C.” value ([1]; solute (S)-Equol, 6% test solution, approximately 1:16 solute to solvent ratio, then equilibration to ambient conditions, soluble = no visible crystals) was “Soluble” and the “Solubility, 24 hour rest” value ([3]; prepared at 70° C.) was “Soluble”. The “Solubility, 7 day storage at 5° C.” value ([3]; then equilibration to ambient conditions) was “Soluble”, the “Solubility, 24 hour rest” value ([2]; solute hexylresorcinol, 33.5% test solution, approximately 1:2 solute to solvent ratio, prepared at 70° C., soluble = no visible crystals) was “Soluble” and the “Solubility, 7 day storage at 5° C.” value ([2]; solute hexylresorcinol, 33.5% test solution, approximately 1:2 solute to solvent ratio, then equilibration to ambient conditions, soluble = no visible crystals) was “Soluble”.
